Experiment: Thermostability assay of detergent-solubilised receptors expressed in E. coli
Format: physicochemical, turkey
Details: in the absence of Zn^2+

B1: His142 and His285: double histidine mutant of the wild type β1AR for a Zn^2+-bridge (protein, UniProt P07700 1-483, looked up, variant A142H E285H)
Beta-1 adrenergic receptor: MGDGWLPPDCGPHNRSGGGGATAAPTGSRQVSAELLSQQWEAGMSLLMALVVLLIVAGNVLVIAAIGRTQRLQTLTNLFITSLACADLVMGLLVVPFGATLVVRGTWLWGSFLCECWTSLDVLCVTASIETLCVIAIDRYLHITSPFRYQSLMTRARAKVIICTVWAISALVSFLPIMMHWWRDEDPQALKCYQDPGCCDFVTNRAYAIASSIISFYIPLLIMIFVYLRVYREAKEQIRKIDRCEGRFYGSQEQPQPPPLPQHQPILGNGRASKRKTSRVMAMRHHKALKTLGIIMGVFTLCWLPFFLVNIVNVFNRDLVPDWLFVFFNWLGYANSAFNPIIYCRSPDFRKAFKRLLCFPRKADRRLHAGGQPAPLPGGFISTLGSPEHSPGGTWSDCNGGTRGGSESSLEERHSKTSRSESKMEREKNILATTRFYCTFLGNGDKAVFCTVLRIVKLFEDATCTCPHTHKLKMKWRFKQHQA
decrease in stability relative to the wild type receptor: 4 °C

Source: publication PMC3819908 (Journal of molecular biology, 2011)
